The values below come from patent US11103549B2, “Use of histone methyltransferase inhibitors and histone deacetylase inhibitors for therapy of Phelan-McDermid Syndrome” (Asddr, LLC, priority 2016, dated 2021).

One data set concerns Shank3+/ΔC mice. Particulars: i.p., once daily for 3 days.
For data set [1] the following is noted: Klimek et al., 2008; cited from earlier work.
Setting [2] is: UNC0642 1 mg/kg or romidepsin 0.25 mg/kg.

Entries after “also recorded” stand apart in the source; their conditions may differ.

Regarding Romidepsin, in the data set with Shank3+/ΔC mice (setting [2]), the “behavioral abnormalities or neuronal loss” value is on record as “does not induce behavioral impairment or neuronal loss; also recorded: No behavioral abnormalities or neuronal loss”; the “blood chemistry and hematology: indicators for liver and kidney functions, lipid and protein metabolism” value is on record as “within normal ranges”. Besides, the “white blood cells and lymphocytes” value with Shank3+/ΔC mice (romidepsin 0.25 mg/kg) was “lower white blood cells and lymphocytes”. In data set [1], the brain permeability entry is recorded as “brain-permeable”.
